# System: CD4+ T cell (CD8+ T cell depleted PBMCs)
# Experiment: Ex vivo T-cell proliferation assay
# Assay type: cell-based, human
# Settings: donors positive on at least one time point
substance,measurement,value
Herceptin: low immunogenicity control,% Response,8%

# — patent publication US20260295054A1, “GLUCAGON-LIKE PEPTIDE-1 RECEPTOR AGONIST VARIANTS AND METHODS THEREOF” (Neuraly, Inc., priority 2023, published 2026)
